Results as given in US8637463B2, “Peptide inhibiting angiotensin converting enzyme” (Meiji Dairies Corporation, priority 2003, dated 2014).

The chains behind the UniProt entries cited, without tags or fusion partners. Residues count along the entry.
UniProt P12821, 30-1306, species assumed: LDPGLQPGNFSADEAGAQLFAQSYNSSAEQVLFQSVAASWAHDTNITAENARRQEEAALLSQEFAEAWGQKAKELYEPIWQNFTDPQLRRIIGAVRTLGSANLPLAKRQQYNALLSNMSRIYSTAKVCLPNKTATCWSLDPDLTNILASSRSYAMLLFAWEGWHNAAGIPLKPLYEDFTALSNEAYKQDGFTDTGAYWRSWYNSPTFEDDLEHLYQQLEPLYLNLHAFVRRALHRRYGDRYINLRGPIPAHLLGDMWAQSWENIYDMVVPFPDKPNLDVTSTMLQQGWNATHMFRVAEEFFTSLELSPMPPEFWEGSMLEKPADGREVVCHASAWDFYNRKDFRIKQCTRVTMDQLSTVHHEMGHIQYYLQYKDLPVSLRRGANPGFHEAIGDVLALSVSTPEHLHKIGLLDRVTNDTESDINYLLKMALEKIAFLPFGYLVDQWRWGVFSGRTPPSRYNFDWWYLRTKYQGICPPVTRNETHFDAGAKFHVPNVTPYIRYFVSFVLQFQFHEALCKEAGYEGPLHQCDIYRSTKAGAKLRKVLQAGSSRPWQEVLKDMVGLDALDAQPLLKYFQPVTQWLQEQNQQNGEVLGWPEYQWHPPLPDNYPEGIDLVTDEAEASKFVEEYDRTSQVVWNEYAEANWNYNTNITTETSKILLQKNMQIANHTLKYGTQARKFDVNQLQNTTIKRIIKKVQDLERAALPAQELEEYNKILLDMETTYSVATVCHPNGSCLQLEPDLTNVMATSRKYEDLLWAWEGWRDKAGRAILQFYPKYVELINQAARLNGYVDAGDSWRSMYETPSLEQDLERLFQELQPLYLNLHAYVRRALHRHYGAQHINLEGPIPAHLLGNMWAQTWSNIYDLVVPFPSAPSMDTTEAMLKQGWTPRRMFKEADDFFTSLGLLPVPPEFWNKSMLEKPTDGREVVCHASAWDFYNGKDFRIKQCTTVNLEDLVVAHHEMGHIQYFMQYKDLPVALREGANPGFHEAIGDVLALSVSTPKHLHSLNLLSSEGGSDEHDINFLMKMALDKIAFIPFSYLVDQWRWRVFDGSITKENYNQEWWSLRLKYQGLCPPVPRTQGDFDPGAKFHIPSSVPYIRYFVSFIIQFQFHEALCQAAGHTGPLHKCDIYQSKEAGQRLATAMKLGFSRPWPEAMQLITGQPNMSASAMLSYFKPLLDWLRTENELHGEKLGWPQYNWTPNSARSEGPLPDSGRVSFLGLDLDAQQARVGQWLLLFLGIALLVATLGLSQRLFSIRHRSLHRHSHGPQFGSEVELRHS

Target: Angiotensin Converting Enzyme (Homo sapiens, UniProt P12821)
Experiment: ACE inhibitory activity with Hippuryl-His-Leu substrate, absorbance at 228 nm
Assay type: biochemical
Conditions: synthetic peptide, 0.1 M borate buffer pH 8.3, 37° C., 60 minutes; Table 1
Experimental: Each of the peptides of SEQ ID NOs:1 to 7 was synthesized using an automatic peptide synthesizer. It was confirmed by reverse phase HPLC that the purity of each of the thus obtained peptides is 95%. Each of these synthetic peptides was dissolved in 0.1 M borate buffer (pH 8.3). Subsequently, 0.1 ml of an enzyme solution (Angiotensin Converting Enzyme: 2 units/ml) and 0.04 ml of each of the sample solutions were mixed therewith, followed by heating to 37° C. A 0.1 ml portion of a substrate solution (Hippuryl-His-Leu; N-Benzoyl-Gly-His-Leu) was added thereto, followed by thorough stirring. After allowing the mixture to react at 37° C. for 60 minutes, the reaction was stopped by adding 0.13 ml of 1 N hydrochloric acid. […] The residual matters were dissolved by adding 0.5 ml of distilled water, and the absorbance at a wavelength of 228 nm was measured.
The activity of inhibiting ACE (%) was calculated by the following mathematical expression 1. […]
In this connection, A in the expression is absorbance of the control when the enzyme is used, B is the absorbance of the control when the enzyme is not used, C is absorbance of the sample when the enzyme is used, and D is absorbance of the sample when the enzyme is not used. […]
Based on the thus obtained ACE inhibitory activities, IC50 of each peptide was calculated. […]

IC50: 800 nM
Compound: CSCC[C@H](N)C(=O)N[C@@H](C)C(=O)N1CCC[C@H]1C(=O)O [Met-Ala-Pro]
